Values quoted from earlier work as cited in patent US20050124660A1, “Novel medical uses of compounds showing CB1-antagonistic activity and combination treatment involving said compounds” (priority 2003, published 2005).

Target: T1, porcine pancreatic lipase (Sus scrofa, UniProt P00591)
T1 sequence (P00591 1-450): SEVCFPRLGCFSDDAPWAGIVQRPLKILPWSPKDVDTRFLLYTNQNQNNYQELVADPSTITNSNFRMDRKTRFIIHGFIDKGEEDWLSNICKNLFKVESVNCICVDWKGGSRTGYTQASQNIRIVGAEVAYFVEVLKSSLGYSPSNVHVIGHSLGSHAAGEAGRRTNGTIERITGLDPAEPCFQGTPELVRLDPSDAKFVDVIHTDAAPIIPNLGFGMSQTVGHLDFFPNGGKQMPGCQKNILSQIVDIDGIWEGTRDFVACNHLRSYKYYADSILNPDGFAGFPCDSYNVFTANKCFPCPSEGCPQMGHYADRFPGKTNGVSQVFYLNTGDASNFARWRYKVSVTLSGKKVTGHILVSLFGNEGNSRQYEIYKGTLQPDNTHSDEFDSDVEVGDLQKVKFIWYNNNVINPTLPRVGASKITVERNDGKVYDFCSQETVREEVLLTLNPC
Conditions: cited from earlier work

(2S,3S,5S,7Z,10Z)-5-((S)-2-formamido-4-methylvaleryloxy)-2-hexyl-3-hydroxy-7,10-hexadecadienoic acid lactone [lipstatin]
IC50 for inhibition of hydrolysis of triolein by porcine pancrease lipase: 0.07 µg/mL
